We go through one substance from patent publication US20120115955A1, “Methods for tumor treatment and adipogenesis differentiation” (Centro de Investigacion Principe Felipe, priority 2010, published 2012).

The test system of this assay is MALME-3M cells. The experiment in a line: Nile-Red neutral lipid / LD quantification by flow cytometry (FL2). Format: cell-based, human. Particulars: 12-hour incubation, data not shown. The procedure:
FIG. 6. […] MALME-3M cells were cultured in the presence of 10 μg/ml of docosahexaenoic acid, 100 μg/ml of nervonic acid, 100 μg/ml of erucic acid, 10 μg/ml of arachidonic acid, 100 μg/ml of linolenic acid, 100 μg/ml of linoleic acid, 100 μg/ml of oleic acid, 100 μg/ml of palmitoleic acid, 100 μg/ml of elaidic acid, or 100 μg/ml petroselinic acid for 12 hours. Fatty acids were dissolved in DMSO; therefore the cells cultured with RPMI+10% FBS and treated with DMSO only were considered negative controls. The Nile-Red analysis was performed as described in the Material and Methods section. Quantification in the FL2 parameter was assessed by the FlowJo software. Fold induction was estimated by calculating the ratio between treated conditions and the untreated condition (control). The results are representative of three independent experiments.
Cells (10^5) were washed twice in PBS and then incubated with 25 μg/ml of Nile-Red (Invitrogen) in PBS (15 min, 4° C.). After incubation, cells were filtered through a 30 μm sieve (CellTrics, Partec). Fluorescent emission (525 nm) was registered in the FL2 channel by a Beckman Coulter Flow Cytometer (Cytomics™ FC 500). Data files were analyzed using the FlowJo flow cytometer analysis software.
On the technique in general: In flow cytometry, cells or beads pass a laser one at a time.

With albumin: human recombinant albumin, the “neutral lipids in LDs (Nile-RED), synergy test POL / recombinant albumin” value is “presented no adipogenic properties”.
